This note sets out measurements from patent publication US10363239B2, “Method for inhibiting growth of cancer cells” (Pain Therapeutics, Inc., priority 2013, dated 2019).

Sequences of proteins named here, by UniProt entry; tags and fusion partners are left off. A change or cut given only in a name is not applied to a line headed by its entry.
UniProt P21333: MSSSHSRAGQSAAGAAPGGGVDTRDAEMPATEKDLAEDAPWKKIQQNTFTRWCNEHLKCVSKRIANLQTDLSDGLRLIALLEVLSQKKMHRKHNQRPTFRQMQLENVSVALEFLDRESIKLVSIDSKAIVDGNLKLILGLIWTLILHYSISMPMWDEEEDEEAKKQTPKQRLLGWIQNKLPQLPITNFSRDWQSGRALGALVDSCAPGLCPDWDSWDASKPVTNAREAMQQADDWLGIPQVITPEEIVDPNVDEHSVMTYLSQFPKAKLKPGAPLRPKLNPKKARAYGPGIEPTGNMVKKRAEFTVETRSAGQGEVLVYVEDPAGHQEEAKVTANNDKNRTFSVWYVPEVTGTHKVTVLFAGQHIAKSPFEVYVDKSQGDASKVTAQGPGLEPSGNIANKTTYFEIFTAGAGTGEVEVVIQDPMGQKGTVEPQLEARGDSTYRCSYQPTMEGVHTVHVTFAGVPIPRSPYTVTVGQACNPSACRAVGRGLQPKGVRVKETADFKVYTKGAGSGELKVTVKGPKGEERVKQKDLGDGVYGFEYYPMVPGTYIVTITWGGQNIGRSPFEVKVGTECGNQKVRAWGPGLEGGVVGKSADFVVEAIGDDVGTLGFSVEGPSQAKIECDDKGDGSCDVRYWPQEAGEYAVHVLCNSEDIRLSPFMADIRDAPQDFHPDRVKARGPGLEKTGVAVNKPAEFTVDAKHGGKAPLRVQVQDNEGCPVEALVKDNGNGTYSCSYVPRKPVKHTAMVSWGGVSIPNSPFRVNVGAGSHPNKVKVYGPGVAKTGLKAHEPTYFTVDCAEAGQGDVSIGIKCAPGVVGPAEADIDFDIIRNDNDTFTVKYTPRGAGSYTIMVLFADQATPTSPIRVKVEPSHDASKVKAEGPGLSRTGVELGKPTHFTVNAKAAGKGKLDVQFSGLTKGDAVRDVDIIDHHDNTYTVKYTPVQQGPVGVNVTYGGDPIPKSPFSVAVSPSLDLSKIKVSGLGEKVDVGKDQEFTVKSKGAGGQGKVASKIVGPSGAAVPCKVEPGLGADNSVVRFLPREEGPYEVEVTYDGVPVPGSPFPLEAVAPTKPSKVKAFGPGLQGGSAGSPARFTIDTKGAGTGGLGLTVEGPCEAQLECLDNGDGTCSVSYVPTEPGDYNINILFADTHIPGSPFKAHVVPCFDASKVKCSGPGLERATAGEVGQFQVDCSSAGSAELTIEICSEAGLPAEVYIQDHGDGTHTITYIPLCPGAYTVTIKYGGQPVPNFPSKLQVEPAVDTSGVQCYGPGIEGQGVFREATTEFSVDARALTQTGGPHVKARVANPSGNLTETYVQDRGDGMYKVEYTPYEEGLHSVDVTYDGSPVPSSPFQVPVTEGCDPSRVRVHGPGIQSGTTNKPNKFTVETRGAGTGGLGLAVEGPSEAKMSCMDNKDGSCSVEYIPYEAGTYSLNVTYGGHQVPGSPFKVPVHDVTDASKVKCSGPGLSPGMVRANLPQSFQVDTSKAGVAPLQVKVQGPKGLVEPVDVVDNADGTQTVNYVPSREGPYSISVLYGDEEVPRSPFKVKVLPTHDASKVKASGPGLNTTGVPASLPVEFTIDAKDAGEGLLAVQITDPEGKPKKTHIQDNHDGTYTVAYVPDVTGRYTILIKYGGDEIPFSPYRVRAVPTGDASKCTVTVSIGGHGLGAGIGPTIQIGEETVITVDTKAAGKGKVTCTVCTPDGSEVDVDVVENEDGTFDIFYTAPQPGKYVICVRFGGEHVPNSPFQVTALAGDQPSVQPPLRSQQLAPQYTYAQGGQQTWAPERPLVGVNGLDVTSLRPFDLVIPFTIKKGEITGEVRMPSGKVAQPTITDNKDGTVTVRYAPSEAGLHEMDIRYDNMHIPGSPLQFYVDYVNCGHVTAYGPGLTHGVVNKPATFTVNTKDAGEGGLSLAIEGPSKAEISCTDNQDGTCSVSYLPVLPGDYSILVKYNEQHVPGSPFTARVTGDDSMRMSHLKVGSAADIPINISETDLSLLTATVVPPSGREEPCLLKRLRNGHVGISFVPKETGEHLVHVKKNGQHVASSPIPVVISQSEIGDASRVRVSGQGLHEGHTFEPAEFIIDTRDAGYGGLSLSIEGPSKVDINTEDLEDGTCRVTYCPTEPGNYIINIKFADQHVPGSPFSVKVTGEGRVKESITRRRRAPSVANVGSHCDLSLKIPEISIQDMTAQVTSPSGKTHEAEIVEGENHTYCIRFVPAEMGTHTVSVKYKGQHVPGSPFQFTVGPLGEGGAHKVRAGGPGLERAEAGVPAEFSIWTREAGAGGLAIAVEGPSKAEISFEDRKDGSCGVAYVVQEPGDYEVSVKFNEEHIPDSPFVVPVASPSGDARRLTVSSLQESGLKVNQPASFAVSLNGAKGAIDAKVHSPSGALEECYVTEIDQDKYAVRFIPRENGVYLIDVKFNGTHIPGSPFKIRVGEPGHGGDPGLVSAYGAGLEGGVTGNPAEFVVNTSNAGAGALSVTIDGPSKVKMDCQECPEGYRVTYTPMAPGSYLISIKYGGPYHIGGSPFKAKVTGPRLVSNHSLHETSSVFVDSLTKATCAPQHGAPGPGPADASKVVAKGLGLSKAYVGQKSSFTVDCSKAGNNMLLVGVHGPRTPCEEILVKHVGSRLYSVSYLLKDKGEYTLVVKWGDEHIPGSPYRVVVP

Test [1] concerns the target FLNA pentapeptide of SEQ ID NO: 1 (Bn-VAKGL) (Homo sapiens, UniProt P21333). Kind of test: FITC-NLX-based FLNA screening assay (inhibition of FITC-naloxone binding to Bn-VAKGL on streptavidin plates). The note with it: read-out: Percent Binding Inhibition.
Test [2] has as its system mu opiate receptor (MOR). Put plainly: MOR agonist activity using [35S]GTPγS binding assay in striatal membranes. To be noted: Series C-2. Type of test: biochemical.

What is called inhibition is the change of the read-out against control, counted positive when it falls. Consider `O=C1CN(Cc2ccccc2)C2(CCN(C3CCCCC3)CC2)N1` [C0137M(P7)], for which, in test [1], the inhibition at 0.01 µM amounted to 42.4%, the inhibition at 0.1 µM is 49.9% and the inhibition at 1 µM came to 61.2%.
Taken in the same sequence, the figures for `CC1CCC(C(C)C)C(OCC(O)Cn2ccnc2)C1` (stereo not drawn) [Compound A0039] were 49%, 53.5% and 60.3%.
Regarding `COc1c2c(cc3c1C(CC(=O)Cc1ccccc1F)[N+](C)(C)CC3)OCO2` (stereo not drawn) [Compound B0055], in test [1], the inhibition at 0.01 µM came out at 63.2%, the inhibition at 0.1 µM worked out at 68.2% and the inhibition at 1 µM was 73.9%.
Regarding `O=C1CN(Cc2ccccc2)C2(CCN(S(=O)(=O)c3cc(Cl)cc(Cl)c3O)CC2)N1` [Compound C0138M], in test [1], the inhibition at 0.01 µM was found to be 53%, the inhibition at 0.1 µM is 52% and the inhibition at 1 µM was found to be 59.5%.
Take `O=S(=O)(c1ccc(F)cc1)N1CCOC12CCN(CC1CC1)CC2` [F-C0134]: the inhibition at 0.01 µM in test [1] stood at 37.4%. Besides, in test [1], the inhibition at 0.1 µM came to 45.7%. Besides, the inhibition at 1 µM in test [1] came to 53.1%. For the same compound, the “% DAMGO (0.1 μM)” value in test [2] (0.1 μM compound, relative to DAMGO) is 138.1%. Besides, the “MOR agonist activity, percent [35S]GTPγS binding at the stated compound concentration” value in test [2] (0.1 μM compound, [35S]GTPγS binding to Gαo, striatal membranes) was determined as 290.6%; in test [2] (1 μM compound + 1 μM β-FNA), 66.6%; in test [2] (1 μM compound, [35S]GTPγS binding to Gαo, striatal membranes), 378.9%. Moreover, in test [2] (1 μM compound + β-FNA, relative to DAMGO + BFNA), the “% DAMGO + BFNA” value came to 116.2%. Also, in test [2] (1 μM compound, relative to DAMGO), the “% DAMGO (1 μM)” value is on record as 111.4%.
